Data reported in patent US20020044943A1, “MUC-1 as an immunosuppressive therapeutic agent for the treatment of inflammatory and autoimmune conditions” (priority 1997, published 2002).

Tested on: Purified T cells
Assay: T cell proliferation assay (allo MLR, 3H-thymidine incorporation)
Format: cell-based, human
Settings: 50 U/ml IL-2 or 1 ug/ml anti-CD28 Mab
Method: Enriched T cell populations were purified from buffy coats obtained from normal red cross donors using nylon wool columns by previously reported procedures. See, e.g., Agrawal et al., J. Immunol. 157:2089-95 (1996) and Agrawal et al., J. Immunol. 157:3229-34 (1996). For the allo MLR, mitomycin C treated allogeneic PBLs were cocultured with purified T cells in the presence or absence of affinity purified MUC-1 mucin or control OSM. In most of the experiments, the T cells were cultured 6-7 days in AIM V medium in the absence or presence of MUC-1, MUC-1 derivative or OSM at the indicated concentration. After this time, the T cells were harvested, washed and cultured as indicated.
Purified T cells (10^6/ml) were cultured in AIM V medium with allo PBLs in the absence or presence of MUC-1, MUC-1 derivative or OSM 10 ug/ml for 6-7 days. T cells were harvested and plated in 96 well flat bottom plates at 10^5/well with allo PBLs (10^5/well), in the presence or absence of affinity purified MUC-1, MUC-1 derivative or OSM. […] The cells were harvested on the fifth day and ^3H-thymidine incorporation was measured by liquid scintillation.
Synthetic peptides, as described in Example 8, corresponding to 3, 4, 5 or 6 MUC-1 repeats, were added at 10 ug/ml to allo cultures and T cell proliferation was measured at 14 days from the start of culture. […]

## IL-2: IL-2 added at 50 U/ml to control cultures [reference compound]
  reversal of mucin-mediated inhibition of T cell proliferation: reversed
